The series can be described thus: Metabolic stability of prodrugs in human liver microsomes. The conditions noted are these: NADPH, DPBS pH-7.4, LC-MS/MS. A general note: Liver microsomes are vesicles of endoplasmic reticulum, rich in cytochrome P450 enzymes.

Take “(1R,2R)-1-(2,3-dihydrobenzo[b][1,4]dioxin-6-yl)-2-octanamido-3-(pyrrolidin-1-yl)propyl diethyl phosphate”: the “HLM stability (half-life, minutes)” value was less than 30 min.

Values taken from patent publication US11760741B2, “Pro-drugs of eliglustat” (KASHIV BIOSCIENCES, LLC, priority 2018, dated 2023).
